In article PMC7345279 (Antibiotics, 2020):

Test system: human plasma proteins
Assay: Unbound fraction / protein binding of FLU in pooled plasma, alone and with a second drug (ultrafiltration, LC-MS/MS)
Conditions: Table 5 'FLU alone' line (no HSA named, presumably pooled plasma); FLU 0.2 µg/mL

Cc1onc(-c2c(F)cccc2Cl)c1C(=O)N[C@@H]1C(=O)N2[C@@H]1SC(C)(C)[C@@H]2C(=O)O [FLU, Flucloxacillin]
% Unb: 0.84%
Total Conc: 0.25 µg/mL
Unb Conc: 0.002 µg/mL
